Article PMC10268005, “Investigation of adenosine A1 receptor-mediated β-arrestin 2 recruitment using a split-luciferase assay” (Frontiers in Pharmacology, 2023)

Amino acid sequences for entries named in this document (tags omitted).
UniProt P30542, whole entry: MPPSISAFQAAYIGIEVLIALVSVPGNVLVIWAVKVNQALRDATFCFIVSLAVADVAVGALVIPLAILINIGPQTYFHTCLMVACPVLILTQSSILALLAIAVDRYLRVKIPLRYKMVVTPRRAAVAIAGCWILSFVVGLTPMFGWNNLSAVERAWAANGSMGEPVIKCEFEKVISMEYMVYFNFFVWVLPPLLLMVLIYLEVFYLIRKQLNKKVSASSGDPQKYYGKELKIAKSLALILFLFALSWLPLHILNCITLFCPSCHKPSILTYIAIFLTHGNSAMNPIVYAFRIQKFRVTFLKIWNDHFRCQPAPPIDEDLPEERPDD

Molecular target: T1, human A1AR (Homo sapiens, UniProt P30542)
T1 construct: was generated by amplifying the coding region of A1AR; expressed in transfected cells
Assay: A1AR NanoBit split-luciferase β-arrestin 2 recruitment assay
Type: cell-based
Details: for β-arrestin 2 recruitment (AUC): mean ± SEM, n = 3

## CCNC(=O)[C@H]1O[C@@H](n2cnc3c(N)ncnc32)[C@H](O)[C@@H]1O [NECA, 5′-N-ethylcarboxamidoadenosine]
10 µM agonist, rise-and-fall equation fit (Hoare plug-in)
  initial rate of β-arrestin 2 recruitment: 12.858 ± 0.277 fold change/min
Agonist 0.1 µM
  β-arrestin 2 recruitment (AUC): 9748 ± 407 AUC
Agonist 1 µM
  β-arrestin 2 recruitment (AUC): 19,461 ± 1809 AUC
Agonists at 0.1 and 1 µM, one-way ANOVA, Dunnett's
  change in β-arrestin 2 recruitment compared to control (0.1% DMSO): significant increase
